Some compounds may have been tested in ways that are not shown here.

Test [1] has as its system LoVo. Kind of test: Cytotoxicity against colorectal tumor cell line LoVo 1 hour after incubation. Type of test: functional, cell-based, Homo sapiens. The gist of the method:
(§1)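 LoVo colorectal cells (2.5 × 10^3/well) were exposed to a range of prodrug or parent drug concentrations for 1 h, then washed. The cells were grown a further 3 days at 37 °C, fixed, and stained with sulforhodamine B to measure cellular protein. Treated wells were compared with untreated controls to give IC50. The ratio is prodrug IC50 over drug IC50.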

Test [2] deals with LoVo. Put plainly: Ratio of IC50 (prodrug)/IC50 (drug). In kind it is functional, Homo sapiens. The gist of the method:
as §1

For the molecule `Oc1ccc(N(CCCl)CCCl)c(Cl)c1`, 2.12 µM corresponded to half-maximal inhibition in the test on LoVo [1] (IC50). The Ratio in the test with LoVo [2] was 4.4.

As a reminder, the IC50 is the concentration at which inhibition is half-maximal. Higher therefore signals lower potency.

Values taken from ChEMBL document CHEMBL1128221 (J Med Chem, 1995).
